For assay [1], the target named is kallikrein (Homo sapiens (Human), UniProt P03952). Kind of assay: In vitro cellular assay (contact assay): kallikrein activity in ellagic acid-activated human plasma, substrate Z-FR-2-AMC. Format: biochemical. As to conditions: human plasma activated with ellagic acid, Z-FR-2-AMC substrate, 37° C. The procedure:
The ability of the compounds disclosed herein to inhibit cellular kallikrein activity was quantified and the respective EC50 value was determined.
All dilutions were prepared in an assay buffer comprising 50 mM Tris-HCl pH 7.2, 150 mM NaCl, and 0.01% Triton X-100.
The ten solutions of the test compounds, prepared by serial dilution, were further diluted 50-fold in the assay buffer.
Human plasma is thawed on ice and centrifuged for 15 min at 4° C. to remove platelets. A 1 mM stock solution of ellagic acid is diluted to 8 μM and mixed with human plasma, after removing platelets, at a ratio of 1:0.8. […]
The enzyme reaction was quantified by immediate kinetic reading of the assay plate using excitation/emission wavelengths of 330 nm/440 nm respectively. Fluorescence intensity was recorded for 60 min, using a time interval of 43 sec.
The inhibition activity of the test compounds were evaluated using the IC50 values, calculated according to the dose-response curve of the test compounds, fitted using the “log(inhibitor)-response (variable slope)” equation in GraphPadPrism software (GraphPad Software, Inc.).
The percentage inhibition was calculated using the following equation:
[formula] where, Mean(BG) is the average value of the fluorescence intensity of the background wells and Mean(PC) is the average value of the fluorescence intensity of the positive control wells. […]

Amino acid sequences for entries named in this document (tags omitted). Residues count along the entry.
UniProt P03952, 20-638: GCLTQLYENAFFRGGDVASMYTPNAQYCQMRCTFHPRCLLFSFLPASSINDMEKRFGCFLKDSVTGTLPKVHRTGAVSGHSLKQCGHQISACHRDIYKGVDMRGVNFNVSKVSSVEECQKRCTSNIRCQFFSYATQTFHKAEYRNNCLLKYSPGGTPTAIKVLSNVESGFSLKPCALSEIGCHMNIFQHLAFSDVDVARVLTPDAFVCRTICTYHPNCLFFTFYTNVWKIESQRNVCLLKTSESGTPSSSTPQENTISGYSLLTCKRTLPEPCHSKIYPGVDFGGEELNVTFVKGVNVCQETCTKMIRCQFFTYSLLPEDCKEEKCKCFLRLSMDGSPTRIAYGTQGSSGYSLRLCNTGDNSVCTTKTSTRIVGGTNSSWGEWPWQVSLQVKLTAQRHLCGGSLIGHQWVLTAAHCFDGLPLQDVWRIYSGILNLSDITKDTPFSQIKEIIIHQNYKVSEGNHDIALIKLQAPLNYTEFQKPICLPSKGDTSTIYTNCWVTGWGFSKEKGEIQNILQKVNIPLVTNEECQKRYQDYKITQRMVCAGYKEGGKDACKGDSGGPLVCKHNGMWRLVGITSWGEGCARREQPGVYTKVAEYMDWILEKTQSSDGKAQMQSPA

Assay [2] concerns the target human Plasma Kallikrein (Homo sapiens (Human), UniProt P03952). Description: In vitro enzyme inhibition of human plasma kallikrein (PFR-AMC cleavage). Format: biochemical. As to conditions: Pro-Phe-Arg-AMC substrate, 37° C., read-out: hPK IC50. The procedure:
The ability of the compounds disclosed herein to inhibit human plasma kallikrein activity was quantified according to the procedures below.
A 10 mM solution of the test compound was made in DMSO. […] A control tube containing only DMSO is included. 16 μL of each compound test solution was combined with 384 μL of assay buffer (50 mM Tris-HCl pH 7.5, 150 mM NaCl, 0.01% Triton X-100) to yield a “4× test compound buffer stock”.
These solutions are hereby referred to as 4×hPK and 2×PFR-AMC, respectively.
50 μL was removed from this mixture and placed into duplicate wells on a Microfluor 1Black U-bottom microtiter plate (Thermo Scientific). This plate was incubated for 5 minutes at 37° C. To each well, 50 μL of pre-warmed 2×PFR-AMC was added to start the enzymatic reaction. Cleavage of PFR-AMC was monitored in a Biotek Synergy H4 reader set at 37° C. Readings are taken every 43 seconds for 1 hour. […] The IC50 is calculated using the Gen5 (Biotek Instruments).
The ability of the compounds in Table 3 to inhibit human plasma kallikrein activity was determined.

The term EC50 denotes the concentration that produces a half-maximal response. Lower therefore signals greater potency. The IC50 is the concentration at which inhibition is half-maximal. Regarding `Cc1cc(N)nc(C)c1CNC(=O)c1ccnc(Cc2cc(C(N)=O)c3ncc(Cl)cc3c2)c1` [Example 58, 6-((4-(((6-amino-2,4-dimethylpyridin-3-yl)methyl)carbamoyl)pyridin-2-yl)methyl)-3-chloroquinoline-8-carboxamide], the concentration for a half-maximal effect (EC50) in assay [1] was less than 100 nM. In assay [2], the 50% inhibitory concentration (IC50) is less than 100 nM. For `Cc1cc(N)nc(C)c1CNC(=O)c1ccnc(Cc2cc(C#N)c3ncc(Cl)cc3c2)c1` [Example 50, N-((6-amino-2,4-dimethylpyridin-3-yl)methyl)-2-((3-chloro-8-cyanoquinolin-6-yl)methyl)isonicotinamide], the IC50 in assay [2] was less than 100 nM.

For the origin of these results see patent US9611252B2 (LifeSci Pharmaceuticals, Inc., priority 2013, dated 2017).
